# Screening results as filed in PubChem BioAssay.
# Only some compounds are listed: those with a hit (about 1.1% of all), similar ones and a draw of the others.
# BRCA1 expr act: BRCA1 expression activation; hit rate 1.1% among 380,000; MCF7-BRCA1-FFLuc reporter, luminescence, 48 h; response scale: scaled: vehicle 0%, 10 µM genistein 100%; Potency, µM (titrated, usually from 46.1 µM), most hits filed as activators; AID 624202; note: nearly all actives have a fitted effect of over 80% in size
#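 Luminescence from a BRCA1-driven firefly luciferase in MCF7 cells was read after 48 h compound exposure at 37 C. Data normalized against DMSO and a 10microM genistein activation control, then curve-fitted across the titration.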
# Apoferritin bind: candidate novel general anesthetic via apoferritin binding. P02791. AID 485281. apoferritin/1-aminoanthracene competitive binding, fluorescence. hit rate 0.074% among 350,000. Potency, µM (highest dose often 77.5 µM), usual class: inhibitors; note: nearly all actives have a fitted effect of over 20% in size
#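 Horse-spleen apoferritin (10 uM) was mixed with 50% saturated 1-aminoanthracene in PBS, exposed to compounds for 10 min at room temperature, and read for fluorescence (ex 380 nm, em 535 nm). Competitive displacement was fitted with a four-parameter Hill equation.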
# miR-21 reporter: raises the signal of a miR-21 reporter; Potency, µM (doses to about 38.3 µM); HeLa miR-21 FLuc reporter, luciferase, 48 h; AID 2288; 340,000 tested, under 10 active; active = well fitted rising curve with a large enough effect; inconclusive = small, poorly fitted or top-dose-only effect; inactive = no such curve, though single readings can be large or run the other way;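 further: miR-21 action dims this reporter so a rising signal means less miR-21 action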
#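 Compounds were titrated across several concentrations (up to approximately 40 uM) and incubated 48 hours with HeLa miR-21-FLuc reporter cells (miR-21 target sequence downstream of FLuc, endogenous miR-21). Readout was firefly luciferase luminescence after lytic detection reagent.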
# p53 reactivation: restores transcriptional activity of mutant p53; H1299 p53-A138V BP100-luciferase reporter, luminescence, 24 h; Potency, µM (doses to about 92.2 µM), usual class: activators; hit rate 0.063% among 320,000; note: nearly all actives have a fitted effect of over 45% in size
#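 H1299 (p53-null), stable ts p53-A138V + BP100-Luc; 1000 cells/well, Opti-MEM/10% FBS; cpd 4 pt, 1:5; 24 h, 37 deg C, 5% CO2; detection reagent 10 min RT; luminescence.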
# A number is an active result; i = inactive; ? = inconclusive; nt = no result given. Unless noted, calls come from the whole dose curve; as a rule, active = well fitted curve in the direction sought with a large enough effect; inconclusive = small, poorly fitted or top-dose-only effect, or another doubt; inactive = no such curve, though single readings can be large; an effect the other way counts as inactive or inconclusive.
SMILES,BRCA1 expr act,Apoferritin bind,miR-21 reporter,p53 reactivation
O=C1c2ccccc2C(=O)c2ccccc21,nt,i,nt,nt
Cc1ccc2c(c1N)C(=O)c1ccccc1C2=O,10µM,nt,nt,?
CCN1/C(=C\C=C\C2=[N+](CC)c3ccccc3C2(C)C)C(C)(C)c2ccccc21,i,28µM,?,i
CC(=O)c1ccc(NC(=O)CSc2nc(=O)cc(N)n2-c2ccccc2)cc1,10µM,i,i,i
COc1ccc(CN2CCc3nc(N4CCN(c5ccc(F)cc5)CC4)ncc3C2)c(OC)c1OC,nt,i,?,nt
CCN(CC)C(=O)c1ccc(NC(=O)c2cccc(F)c2)cc1,11µM,?,i,i
CCN(CC)C(=O)c1ccc(NC(=O)c2cccc(S(=O)(=O)N3CCN(C)CC3)c2)cc1,i,i,i,i
Cc1cccc2c3c(ccc12)C1=C(C(=O)C3=O)[C@@H](C)CO1,nt,i,nt,nt
CCc1ccc(-n2c(=O)c3sc4ccccc4c3n(CC(=O)NC3CCCC3)c2=O)cc1,i,i,i,nt
O=C(Nc1ccc2nc3n(c(=O)c2c1)CCCCC3)c1cccc(C(F)(F)F)c1,nt,i,i,nt
COc1ccc(-n2nc(C(=O)NCC(=O)N3CCC4(CC3)OCCO4)c3ccccc3c2=O)cc1Cl,10µM,i,i,?
COc1ccc(-n2nc(C(=O)NCC(=O)N3CCC4(CC3)OCCO4)c3ccccc3c2=O)cc1,?,i,i,?
CS(=O)(=O)NNC(=O)Cn1nnc(-c2ccc(OCc3ccccc3Cl)cc2)n1,11µM,nt,nt,nt
Cc1ccc(N2CCN(C(=O)c3cn(CC4CCCCC4)nn3)C(C)C2)cc1 (centres undefined),2.5µM,nt,nt,nt
N#Cc1cc2c(nc1SCC(=O)Nc1cc(Cl)ccc1Cl)C1CCN2CC1,i,i,i,45µM
N#Cc1cc2c(nc1SCC(=O)Nc1ccc(Cl)cc1)C1CCN2CC1,i,i,i,?
NC(Cc1nc2ccccc2[nH]1)c1ccc(Cl)cc1 (centres undefined),11µM,i,i,?
Cc1ccc(N/N=C/C=C/c2ccco2)cc1,7.9µM,nt,nt,nt
CC1Cc2ccccc2N1C(=O)COC(=O)c1ccc(Cl)nc1 (centres undefined),i,?,i,i
CC1=C/C(=N\NC(=S)NCCc2ccccc2)CC(C)(C)C1,11µM,i,i,?
O=C(Nc1nc2c(s1)CCCCCC2)Nc1ccc(F)cc1F,nt,i,i,nt
Cc1cc(C(=O)CS(=O)(=O)c2ccc(F)cc2)cc(C)c1OC(=O)N(C)C,4µM,i,i,i
Cc1csc2nc(COC(=O)c3ccccc3NC(=O)c3ccc(F)cc3)cc(=O)n12,nt,i,i,nt
CN(C)c1ccc(/C=C2/C(=N\O)C3CCN2CC3)cc1,4µM,i,i,i
O=C1C(=Cc2ccccc2)N2CCC1CC2,i,nt,nt,nt
SMILES,BRCA1 expr act,Apoferritin bind,miR-21 reporter,p53 reactivation
Cc1c(Cl)cccc1NC(=O)c1oc2ccc(S(=O)(=O)N3CCC4(CC3)OCCO4)cc2c1C,nt,i,?,nt
CN(C)P(=O)(C(Cl)=C(N1CCCCC1)N1CCCCC1)N(C)C,i,i,i,32µM
O=C(N1CCCCCC1)N1CC1,i,nt,nt,nt
Nc1ccc2c(c1)Cc1cc([N+](=O)[O-])ccc1-2,10µM,i,i,?
Cc1cc(C)cc(OCC(=O)Nc2ccc(-c3nc4ccccc4s3)cc2)c1,i,i,i,nt
C/C(=N\OC(=O)NC(C)C)c1sc(-c2ccccc2)nc1C,5.6µM,i,i,i
C/C(=N\OC(=O)NC(C)C)c1sc(-c2ccc(Cl)cc2)nc1C,i,?,i,i
Cc1cccc(OCCn2c(=O)oc3ccc(C)cc32)c1,8.9µM,i,i,i
Cc1ccc(-c2c(C)n3c4c(=O)n(C)c(=O)n(C)c4nc3n2CCO)cc1,nt,i,?,nt
CCC(=O)Nc1ccc(C(=O)OCc2ccccc2Cl)cc1,7.1µM,i,i,i
C=CCN1C(=O)NC(=O)/C(=C\c2ccc(-c3ccccc3[N+](=O)[O-])o2)C1=O,i,40µM,i,i
COc1ccccc1C(=O)Nc1ccc2nc(SCC(=O)N3CCCc4ccccc43)sc2c1,nt,i,i,nt
O=C(N/N=C/c1c(O)n(Cc2ccccc2)c(=O)[nH]c1=O)c1ccccc1O,i,i,i,32µM
O=C(N/N=C/c1c(O)n(Cc2ccc(F)cc2)c(=O)[nH]c1=O)c1ccccc1O,i,i,i,i
CCOC(=O)N1CCN(/[N+]([O-])=N/Oc2ccc([N+](=O)[O-])cc2[N+](=O)[O-])C(C)C1 (centres undefined),nt,i,nt,nt
COc1ccc2nc(N3CCN(C(=O)CS(=O)(=O)c4ccc(C)cc4)CC3)sc2c1,nt,i,i,nt
COc1ccc(-c2nc3ccccc3c(=O)o2)cc1,14µM,i,i,i
CCC(=O)Oc1ccc2c(c1)CCC1C2CC[C@]2(C)C(OC(=O)CC)CCC12 (some centres undefined),nt,i,nt,nt
O=c1c2cc(N3CCOCC3)ccc2[nH]c(=S)n1Cc1ccc(Cl)cc1,11µM,i,i,i
CCOP(=O)(Oc1ccccc1)c1c([N+](=O)[O-])cc(C(F)(F)F)cc1[N+](=O)[O-] (centres undefined),i,i,i,i
CCCOP(=O)(O)c1c([N+](=O)[O-])cc(C(F)(F)F)cc1[N+](=O)[O-] (tested in a mixture with another compound),10µM,i,i,i
COc1ccc(CCN2CCCC(CN(C)C(=O)c3cc(C)oc3C)C2)cc1 (centres undefined),7.9µM,i,i,35µM
COc1ccc(CCN2CCC(CNC(=O)c3cnn(-c4ccc(C)cc4)c3C3CCN(C(=O)OC(C)(C)C)CC3)CC2)cc1,nt,i,i,nt
